In patent US20250263408A1 (Uniquest Pty Ltd, priority 2022, published 2025):
pIC50: −log10 of the molar value.

Molecular target: T1, Syk (Homo sapiens, UniProt P43405)
T1 construct: purchased Promega
Experiment: Syk Biochemical Assay (ADP-Glo luminescence)
Conditions: ATP 40 μM final, 60 minutes, read-out: SYK Biochem IC50
Procedure: Compounds were serially diluted in 100% DMSO, prior to an intermediate dilution in water. In a low volume white 384-well Proxiplate (Perkin Elmer), 1 μL of compound (0.4% final DMSO) was added to 3 μL of 10 ng/well Syk (Promega) and 0.2 mg/mL Poly-E4Y1 substrate (Promega) in assay buffer (final 40 mM Tris-HCl pH 7.4, 20 mM MgCl2, 0.1 mg/mL BSA) for 5 minutes. The reaction was initiated by addition of 1 μL of ATP (40 μM final) and allowed to proceed for 60 minutes at room temperature. The reaction was terminated by addition of 5 μL of ADP-Glo Reagent Mix (Promega) containing 1 mM MgCl2 for 45 minutes at room temperature. 10 μL of Kinase Detection Reagent (Promega) was added and incubated for 10 minutes at room temperature, before luminescence was measured using an Ensight Multimode Plate Reader (Perkin Elmer).

| Compound | pIC50 |
| --- | --- |
| 5-{[(2S,6R)-6-methylmorpholin-2-yl]methoxy}-7-[1-(propan-2-yl)-1H-pyrrol-3-yl]quinoline [Compound 7.21] | 7.59 |
| c1cnc2cc(-c3ccn(C4CCC4)c3)nc(OC[C@@H]3CNCCO3)c2c1 [Compound 6.3, 7-(1-cyclobutyl-1H-pyrrol-3-yl)-5-{[(2S)-morpholin-2-yl]methoxy}-1,6-naphthyridine] | 7.59 |
